Measurements: patent US7807162B2, “Single domain VHH antibodies against von Willebrand factor” (Ablynx N.V., priority 2005, dated 2010)
Several values for one entry are separate records, joined by “and”; a condition that tells them apart may be missing. Equal entries are not always repeated.

Assays:
[1] = Immunogenicity analysis in baboons treated for 8 weeks (ELISA and Biacore); assay type: in vivo, baboon; conditions: three baboons, increasing doses starting from 10 μg/kg
Experimental: The presence of ALX-0081 immunoglobulins in plasma of three baboons was evaluated by two methods, respectively an ELISA method and a SPR-based method on Biacore. The baboons were treated for 8 weeks with increasing doses of ALX-0081 (starting from 10 μg/kg).

[2] = tested on: cyclic flow reductions (CFRs) in injured, stenosed femoral artery; experiment: Folts thrombosis model in baboons: length/inhibition of cyclic flow reductions (CFRs); design: species or system baboon (Papio ursinus); conditions: in vivo
Excerpt: The study protocol that was applied is the original Folts model and some modifications described below (Folts J D, et al, Circulation. 1976; 54:365-370). Healthy male or female baboons (Papio ursinus) were used. The animals were 8-17 kg of weight and were disease-free for at least 2 weeks prior to use. The baboons were fed with dry standard food only. The baboons were used at different time points. The weight of the baboons are summarized in table 42 (efficacy study ALX-0081 and comparison with individual drugs) and table 50 (efficacy of a combination of drugs and ALX-0081 on top of this combination). Animals were anaesthetized and body temperature is maintained at 37° C. with a heating table. A segment of a femoral artery was dissected free from surrounding tissue. A shunt was placed between the femoral vein and femoral artery to obtain high shear rates. The mean and phasic blood flow was recorded continuously throughout the experiment. Baseline flow was recorded for 20 minutes. […] A clamp was placed over the injured site to create an external stenosis. A gradual decline in blood flow due to platelet adhesion and aggregation was observed. When flow was reduced to zero, blood flow was restored by opening the clamp to dislodge the platelet-rich thrombus. […] The anti-thrombotic effect was quantified by comparing the length of CFRs before and after drug administration. […]

[3] = Bleeding analysis in Folts baboons (blood loss in gauzes); conditions: for Blood loss relative to the second control gauze: individual baboons 17-24

B1: ALX-0081: ALX-0081 (SEQ ID NO:98), Nanobody; humanised bivalent nanobody with the 3a linker (protein)
VHH: EVQLVESGGGLVQPGGSLRLSCAASGRTFSYNPMGWFRQAPGKGRELVAAISRTGGSTYYPDSVEGRFTISRDNAKRMVYLQMNSLRAEDTAVYYCAAAGVRAEDGRVRTLPSEYTFWGQGTQVTVSSAAAEVQLVESGGGLVQPGGSLRLSCAASGRTFSYNPMGWFRQAPGKGRELVAAISRTGGSTYYPDSVEGRFTISRDNAKRMVYLQMNSLRAEDTAVYYCAAAGVRAEDGRVRTLPSEYTFWGQGTQVTVSS
[1]
  immunogenic response: no immunogenic response could be observed
[2]
  dose required for full inhibition of CFRs, fold lower than the dose needed for Reopro: approximately 10 fold
[3]; 19 μg/ml
  concentration at 10-fold blood loss as multiple of the effective concentration: 40-60 fold
[3]; ALX-0081 final dose 3 μg/kg
  Blood loss relative to the second control gauze, Average: 1.0
  Blood loss relative to the second control gauze: 0.4 and 1.2 and 0.5 and 1.1 and 1.8 and 0.8
[3]; ALX-0081 final dose 13 μg/kg
  Blood loss relative to the second control gauze, Average: 1.0
  Blood loss relative to the second control gauze: 1.2 (2×) and 0.8 and 0.1 and 1.1 (3×) and 1.3
[3]; ALX-0081 final dose 43 μg/kg
  Blood loss relative to the second control gauze, Average: 2.9
  Blood loss relative to the second control gauze: 2.8 and 2.0 and 4.1 and 3.9 and 2.1 and 3.8 and 3.0 and 1.6
[3]; ALX-0081 final dose 133 μg/kg
  Blood loss relative to the second control gauze, Average: 3.0
  Blood loss relative to the second control gauze: 2.5 and 3.1 and 2.0 and 0.4 and 4.0 and 5.3 and 5.6 and 1.4
[3]; ALX-0081 final dose 403 μg/kg
  Blood loss relative to the second control gauze, Average: 3.2
  Blood loss relative to the second control gauze: 2.6 and 2.3 (2×) and 0.4 and 0.8 and 5.6 and 10.7 and 0.9
[3]; on top of Aspegic/Heparin/Plavix combination: Epinephrin + effective dose ALX-0081
  Blood loss in gauzes relative to the second control gauze, median ± STD: 2.0 ± 10.3
[3]; on top of Aspegic/Heparin/Plavix combination: Epinephrin + effective dose ALX-0081, individual baboons 4-10
  Blood loss in gauzes relative to the second control gauze: 23.4 and 2.0 and 1 and 39.4 and 1.3 and 4.5 and 0.8
[3]; sum of the first five doses
  total blood loss, fold less than in Plavix treated animals: 2 fold
  total blood loss, fold less than in Reopro treated animals: 4 fold
